Here are results for 30 molecules from PubChem BioAssay AID2563 (Broad Institute, 2010).

Protein sequences, listed by entry. Tags and fused reporters are not part of them.
UniProt Q03530, whole entry: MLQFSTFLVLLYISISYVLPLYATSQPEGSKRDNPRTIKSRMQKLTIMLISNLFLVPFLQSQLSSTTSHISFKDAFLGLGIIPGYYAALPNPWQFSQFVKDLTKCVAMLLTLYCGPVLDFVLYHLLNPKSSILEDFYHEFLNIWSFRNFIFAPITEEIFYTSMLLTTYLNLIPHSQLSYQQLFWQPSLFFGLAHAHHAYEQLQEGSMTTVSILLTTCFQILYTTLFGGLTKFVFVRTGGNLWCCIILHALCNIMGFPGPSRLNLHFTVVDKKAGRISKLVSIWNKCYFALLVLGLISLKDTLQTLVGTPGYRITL

Each structure is given as a SMILES string. The entries are a selection whose mix differs from that of the whole data set. Active and inactive are the calls of the source.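 The calls were made as follows: active = fall in fluorescence gain of 50% or more versus controls, with final raw signal at or below 3038400; inconclusive = same 50% fall but final raw signal above 3038400; inactive = fall in fluorescence gain under 50%.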

For this experiment, the target named is CAAX prenyl protease 2 (Saccharomyces cerevisiae (strain ATCC 204508 / S288c)) (UniProt Q03530). The experiment in a line: blockers of Rce1 CaaX peptide cleavage – biochemical, fluorescence, cell-free homogeneous, primary screen (AID 2563). Conditions: yeast membranes, quenched prenylated peptide cleavage fluorescence.
For `O=P(Nc1nc2ccccc2s1)(c1ccccc1)c1ccccc1`, the outcome was inactive.
Turning to `CN(C)CCOC(=O)C(O)(c1ccccc1)C1CCCCC1` (stereo not given), the call was inactive.
`COc1ccc(NP(C)(=O)Oc2ccccc2OC)cc1` (stereo not given): the call was inactive.
Take `COc1ccc(OP(C)(=O)Nc2cccc(Br)c2)cc1` (stereo not given): the molecule was called inactive.
The entry for `CN(C)C1(CNC(=O)c2ccc(Cl)c(S(N)(=O)=O)c2)CCCCC1` is “inactive”; for `O=P(Nc1ccccn1)(c1ccc(Br)cc1)c1ccc(Br)cc1` it is “inactive”.
As to `C(Cc1nn[nH]n1)Cc1nn[nH]n1`, the outcome was inactive.
Take `Nc1ccc([As](=O)(O)c2ccc([N+](=O)[O-])cc2)cc1`: the molecule was classed as inactive.
Consider `O=C(OC1CN2CCC1CC2)c1cccc(Cl)c1` (stereo not given), for which the result was inactive.
Consider `CC(=O)NC(SC(=S)N(C)C)C(Cl)(Cl)Cl` (stereo not given), for which the result was inactive.
For `O=[N+]([O-])c1ccc(OP2(=O)COCCO2)cc1` (stereo not given), the outcome was inactive.
Take `O=[N+]([O-])c1ncn(CCn2cnc([N+](=O)[O-])n2)n1`: the molecule was called inactive.
The entry for `O=[N+]([O-])c1ccc(O)c(/C=N/Nc2ccc([N+](=O)[O-])cc2[N+](=O)[O-])c1` is “inactive”.
As to `Cc1cc(-c2cccc3ccccc23)c(C)cn1.O=[N+]([O-])c1cc([N+](=O)[O-])c(O)c([N+](=O)[O-])c1`, the outcome was inactive.
For `O=[N+]([O-])c1cc([N+](=O)[O-])c(NCC2CCS(=O)(=O)C2)c([N+](=O)[O-])c1` (stereo not given), the result was inactive.
With `O=[As](O)(c1ccccc1)c1ccc(O)cc1`, the call was inactive.
As to `O=C(Nc1cc([As](=O)(O)O)ccc1O)c1ccccc1`, the call was inactive.
For the molecule `CCOC(=O)c1ccc(NP(C)(=O)Oc2ccc(Cl)cc2)cc1` (stereo not given), the outcome was inactive.
As to `CP(=O)(OC12CC3CC(CC(C3)C1)C2)OC12CC3CC(CC(C3)C1)C2`, the molecule was classed as inactive.
With `Nc1ccc2c(ccc3cccnc32)n1.O=[N+]([O-])c1cc([N+](=O)[O-])c(O)c([N+](=O)[O-])c1`, the molecule was classed as inactive.
Next, `O=[N+]([O-])c1cccc(NC2=NCC(CBr)S2)c1` (stereo not given): “inactive”; `O=C(O)CNc1ccc([As](=O)(O)O)cc1`: “inactive”.
For `CC(C)(C)C(=O)NC(Sc1ccncn1)C(Cl)(Cl)Cl` (stereo not given), the outcome was inactive.
`O=[N+]([O-])c1ncn(CCn2ncnc2[N+](=O)[O-])n1`: the outcome was inactive.
Next, `O=C(OCCCN1CCCC1)C(O)(c1ccccc1)C1CCCCC1` (stereo not given): “inactive”; `CC(=O)N1C2C3N(C(C)=O)C1C1N(C(C)=O)C(C(N1C(C)=O)N3C(C)=O)N2C(C)=O`: “inactive”.
For the molecule `O=[N+]([O-])c1cccc2n[nH]nc12`, the result was inactive.
As for `COc1ccccc1OP(C)(=O)Nc1c(C)n(C)n(-c2ccccc2)c1=O` (stereo not given), the result was inactive.
For the molecule `CCc1ccc(OP(C)(=O)Nc2cccnc2)cc1` (stereo not given), the outcome was inactive.
In the case of `O=[N+]([O-])c1cc([N+](=O)[O-])c(CCNc2ccccc2)c([N+](=O)[O-])c1`, the outcome was inactive.
